The values that follow are results of earlier work, collected in publication PMC12673578 (Molecular Pharmaceutics, 2025).

For the series, the system named is CES1 G143E variant. The note with it: literature value, cited from earlier work.

With `COC(=O)[C@H](c1ccccc1Cl)N1CCc2sccc2C1` [clopidogrel], under “CES1 G143E allele carriers”, the “Greater platelet aggregation inhibition in G143E carriers relative to noncarriers” value was 24% and the “Higher concentrations of the active metabolite in G143E carriers relative to noncarriers” value is listed as 50%. Moreover, the “Lower AUC ratio of CCA to clopidogrel in G143E carriers” value (second cited study) is recorded as 53%.
